Chains of the proteins cited; added tags and fusions are not shown.
UniProt P00533, whole entry, looked up: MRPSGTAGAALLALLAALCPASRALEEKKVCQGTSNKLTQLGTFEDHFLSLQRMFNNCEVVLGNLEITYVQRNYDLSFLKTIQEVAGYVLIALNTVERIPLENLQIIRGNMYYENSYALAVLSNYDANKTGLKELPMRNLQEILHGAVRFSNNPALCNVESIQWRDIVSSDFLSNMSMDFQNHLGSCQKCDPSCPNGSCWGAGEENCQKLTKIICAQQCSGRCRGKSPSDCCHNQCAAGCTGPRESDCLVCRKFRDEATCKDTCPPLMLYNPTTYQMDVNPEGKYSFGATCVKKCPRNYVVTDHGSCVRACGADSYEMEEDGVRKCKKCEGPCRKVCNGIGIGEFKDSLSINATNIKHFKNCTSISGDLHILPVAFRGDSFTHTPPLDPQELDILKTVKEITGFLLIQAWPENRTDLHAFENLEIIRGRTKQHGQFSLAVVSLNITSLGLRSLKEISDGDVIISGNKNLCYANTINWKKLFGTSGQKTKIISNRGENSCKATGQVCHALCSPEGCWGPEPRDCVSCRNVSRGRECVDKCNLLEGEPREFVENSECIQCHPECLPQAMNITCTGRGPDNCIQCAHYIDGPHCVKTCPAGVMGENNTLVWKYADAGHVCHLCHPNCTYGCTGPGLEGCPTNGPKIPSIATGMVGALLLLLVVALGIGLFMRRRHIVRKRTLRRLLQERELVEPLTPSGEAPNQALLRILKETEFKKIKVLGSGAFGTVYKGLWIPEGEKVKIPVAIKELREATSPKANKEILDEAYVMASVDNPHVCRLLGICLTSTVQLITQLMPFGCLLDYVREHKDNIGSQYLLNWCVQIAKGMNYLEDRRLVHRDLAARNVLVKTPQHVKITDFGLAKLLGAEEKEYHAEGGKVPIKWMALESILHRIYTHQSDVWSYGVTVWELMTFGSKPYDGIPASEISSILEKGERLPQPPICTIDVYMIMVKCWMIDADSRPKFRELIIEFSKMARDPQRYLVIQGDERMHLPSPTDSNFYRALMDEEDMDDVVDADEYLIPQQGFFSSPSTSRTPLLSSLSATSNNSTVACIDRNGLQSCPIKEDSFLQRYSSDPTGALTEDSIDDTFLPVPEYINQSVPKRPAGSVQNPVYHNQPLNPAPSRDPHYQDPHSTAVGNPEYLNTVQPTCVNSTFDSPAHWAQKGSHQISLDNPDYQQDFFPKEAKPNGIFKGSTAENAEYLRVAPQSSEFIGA

In the Kinase Knowledgebase extract (Sharma et al. 2016):

Molecular target: EGFR (human) (UniProt P00533)
Conditions: mcf-10a

Row | IC50 [nM] | Compound
1 | 173 | COc1cc2ncnc(Nc3cccc(Cl)c3)c2cc1OC
2 | 59 | COc1cc2ncnc(Nc3cccc(F)c3)c2cc1OC
